Overt toxicity data for one compound are collected here from patent US20050070602A1, “Method of modulating immune response by administration of immuno-activation agent” (priority 2003, published 2005).

The conditions of this data set: PEITC-NAC diet 8 μmol/g, nine weeks. The source says: Five week-old BALB/c (nu/nu) male mice purchased from Charles River Laboratories (Wilmington, Mass.) were housed in a barrier facility with 12-h light/dark cycles; tap water and diets provided ad libitum. They were randomly divided into two groups of nine mice. […] The diets began one week prior to inoculation of PC-3 cells and continued until termination of experiments. The xenografted tumors were established by a single s.c. injection in the flank of 0.8×10^6 PC-3 cells suspended in ice-cold matrigel (sigma). The tumor volumes were measured every 7-8 days and calculated by length×width×height×0.5236. Animal body weights were recorded weekly and at autopsy; food consumption was determined twice per week. Two hours before the mice were euthanized, 5-bromo-2′-deoxyuridine (BrdU) (10 mg/kg body weight) was injected in the peritoneum for in vivo labeling of proliferating cells. At autopsy, xenograft tumors were weighed and frozen in liquid nitrogen or fixed in 10% formalin and embedded in paraffin. The BrdU-labeled cells of paraffin embedded tissues on slides were detected employing a monoclonal anti-BrdU antibody from a BrdU detection kit (Roche Molecular Biochemicals) according to manufacturer's direction. The mean numbers of labeled cells from multiple fields were calculated. The comparisons between control and experimental groups were performed with Student's t test.

Turning to `CC(=O)N[C@@H](CSC(=S)NCCc1ccccc1)C(=O)O` [PEITC-NAC, N-acetylcysteine conjugate of phenethyl isothiocyanate], the overt toxicity entry is reported as “no overt toxicity”.
